Results from paper PMC7723054.
The list shows a part of the results.

T1: LIN28A (human?, UniProt Q9H9Z2 1-209)
T1 sequence: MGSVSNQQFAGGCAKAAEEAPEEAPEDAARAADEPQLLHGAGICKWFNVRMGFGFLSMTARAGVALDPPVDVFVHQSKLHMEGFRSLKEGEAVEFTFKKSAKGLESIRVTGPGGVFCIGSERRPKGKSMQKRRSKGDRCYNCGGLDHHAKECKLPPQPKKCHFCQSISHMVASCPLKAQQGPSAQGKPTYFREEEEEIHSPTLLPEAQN

T2: CIRBP (Homo sapiens, UniProt Q14011 1-172)
T2 sequence: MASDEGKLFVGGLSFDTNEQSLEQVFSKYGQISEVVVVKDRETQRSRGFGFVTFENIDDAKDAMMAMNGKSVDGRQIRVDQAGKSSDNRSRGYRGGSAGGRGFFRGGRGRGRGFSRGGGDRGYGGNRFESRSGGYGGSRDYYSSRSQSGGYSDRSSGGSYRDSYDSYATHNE

T3: DHX36 (Homo sapiens, UniProt Q9H2U1 1-1008)
T3 sequence: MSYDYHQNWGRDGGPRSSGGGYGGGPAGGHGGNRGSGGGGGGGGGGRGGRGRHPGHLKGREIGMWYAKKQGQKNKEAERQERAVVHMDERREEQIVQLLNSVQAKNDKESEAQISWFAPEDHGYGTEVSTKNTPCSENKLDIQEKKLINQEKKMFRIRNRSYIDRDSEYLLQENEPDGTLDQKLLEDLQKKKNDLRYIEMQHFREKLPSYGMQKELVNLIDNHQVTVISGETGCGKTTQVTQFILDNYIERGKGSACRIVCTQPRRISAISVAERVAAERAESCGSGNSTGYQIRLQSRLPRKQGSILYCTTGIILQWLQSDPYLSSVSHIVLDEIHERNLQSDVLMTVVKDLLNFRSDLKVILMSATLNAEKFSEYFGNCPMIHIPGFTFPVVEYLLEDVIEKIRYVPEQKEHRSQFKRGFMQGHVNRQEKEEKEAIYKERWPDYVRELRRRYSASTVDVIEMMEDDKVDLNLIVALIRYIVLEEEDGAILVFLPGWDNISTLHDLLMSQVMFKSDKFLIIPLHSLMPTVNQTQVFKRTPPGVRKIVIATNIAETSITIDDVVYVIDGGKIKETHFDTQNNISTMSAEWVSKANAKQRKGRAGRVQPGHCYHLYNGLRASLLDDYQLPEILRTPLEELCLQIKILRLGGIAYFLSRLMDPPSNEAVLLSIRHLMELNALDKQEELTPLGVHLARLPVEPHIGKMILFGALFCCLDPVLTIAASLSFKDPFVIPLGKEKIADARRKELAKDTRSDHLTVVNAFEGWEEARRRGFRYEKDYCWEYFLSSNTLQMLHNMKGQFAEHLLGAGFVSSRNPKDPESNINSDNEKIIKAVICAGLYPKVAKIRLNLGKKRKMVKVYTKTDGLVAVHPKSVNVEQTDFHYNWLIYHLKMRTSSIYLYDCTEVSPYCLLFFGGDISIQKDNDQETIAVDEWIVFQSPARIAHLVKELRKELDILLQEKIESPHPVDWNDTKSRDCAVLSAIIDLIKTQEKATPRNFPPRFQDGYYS

B1: hsa-mir-219a-1 (structured_RNA)
RNA: GGGACGUCGACGGUCACAGUAAAAUCAGGGUGUACGAAGUUUCAGCUUCUCGAGUCUAUGGCUCCGGCCGAGAGGCUGAAGCUUCGUGCAC
B2: hsa-mir-6826 (structured_RNA)
RNA: GGGAUGCAGGUAUGAUACACGGAAGAUCGGUGUACGAAGUUUCAGCACCUCCUGGCUUUUCCUCUGCAGCAUGGCUCGGACCUAGUGCAAUGUUUAAGCUGCUGAAGCUUCGUGCAC
B3: hsa-mir-1205 (structured_RNA)
RNA: GGGAAGGGUACCCAUAACACGACGAAAGGGUGUACGAAGUUUCAGCUGAGGUACUUCCUUCGCUGAAGCUUCGUGCAC
B4: hsa-mir-644a (structured_RNA)
RNA: GGGCCAUAUGUACCGGGCAUCACUCCAGGGUGUACGAAGUUUCAGCCUCUGUAGUUUUCUUAUAGUGGCUGAAGCUUCGUGCAC
B5: hsa-mir-4640 (structured_RNA)
RNA: GGGAAUAAGUCGUCGCGUGAUCCAGCUAGGUGUACGAAGUUUCAGCGGUGGGUGGGAAGUAAGAUCUGACCUGGACUCCAUCCCACCCACCGCUGAAGCUUCGUGCAC
B6: hsa-mir-3156-1 (structured_RNA)
RNA: GGGACAGGCGAUACCCCUGUAAACCGAUGGUGUACGAAGUUUCAGCGGAGACACUUUUACUAUAUAUAGUGGCUCCGCUGAAGCUUCGUGCAC
B7: hsa-mir-4462 (structured_RNA)
RNA: GGGAACUUACUGAGAGGGCAGCCGACUCGGUGUACGAAGUUUCAGCGUCAGGAGUGGCUUUCCUGACGCUGAAGCUUCGUGCAC
B8: hsa-mir-6768 (structured_RNA)
RNA: GGGACGCACUAACAUUGAGUUACCGGAAGGUGUACGAAGUUUCAGCCUGGGUUCGGCUGCUACCCCAAAGCUGAAGCUUCGUGCAC
B9: hsa-mir-5591 (structured_RNA)
RNA: GGGACAUAUGAAAAGGGGAGUCUCACGGGGUGUACGAAGUUUCAGCGUAUACUGAGCUUAUGUAUGCAUCUGCAUACGCUGAAGCUUCGUGCAC
B10: hsa-mir-3127 (structured_RNA)
RNA: GGGACUACGCGCGCCAUCGUUUAGCUUUGGUGUACGAAGUUUCAGCGGGAAGGAGAAGGGACGCUUCCCGCUGAAGCUUCGUGCAC
B11: hsa-mir-1471 (structured_RNA)
RNA: GGGAAUAGUUACUAAGGCCAAAUGAAGCGGUGUACGAAGUUUCAGCGUGUAGAGGCGGAGCACAGGCUGAAGCUUCGUGCAC

Biological target: U1A (Homo sapiens, UniProt P09012)
Test: FOREST: bead pull-down of RNA structure library v1, barcode microarray; U1A/LIN28A: 20 mM HEPES pH 7.5, 80 mM KCl, 20 mM NaCl, 10% glycerol, 2 mM DTT, 0.1 ug/uL BSA, 4 C; BG4/CIRBP/DHX36: 10 mM Tris-HCl pH 7.5, 100 mM KCl (or LiCl),; high values mean tight binding

Binder | binding signal [z-score]
B1 | 0.16
B2 | 0.157
B3 | 0.161
B4 | 0.166
B5 | 0.158
B6 | 0.176
B7 | 0.176
B8 | 0.163
B9 | 0.171
B10 | 0.161
B11 | 0.178

Biological target: T1, LIN28A
Test: as above

Binder | binding signal [z-score]
B1 | -0.743
B2 | 0.256
B3 | -0.0674
B4 | -0.37
B5 | 0.0521
B6 | 0.515
B7 | 0.849
B8 | -1.17
B9 | -1.02
B10 | -0.108
B11 | 2.14

Biological target: T2, CIRBP
Test: as above

Binder | binding signal [z-score]
B1 | -0.41
B2 | 0.258
B3 | 1.24
B4 | 0.268
B5 | 0.747
B6 | 1.16
B7 | -0.014
B8 | -0.742
B9 | -0.345
B10 | -0.621
B11 | 2.13

Biological target: T3, DHX36
Test: as above

Binder | binding signal [z-score]
B1 | -1.05
B2 | -0.0125
B3 | 0.304
B4 | -1.03
B5 | 3.72
B6 | -0.317
B7 | 0.178
B8 | -0.251
B9 | -0.478
B10 | 1.5
B11 | 1.02
